Non-standard residues stand in square brackets, D forms with d. Residues, ends and D or L forms follow the SMILES beside them.
Assays:
[1] = system: small cell lung cancer (SCLC) cell lines; experiment: Growth in vitro of small cell lung cancer (SCLC) cell lines; conditions: active in 6 of 6 cell lines tested: H69, H128, H209, H345, H510A and UCH25
SCLC cell lines = conditions: 20 μM; 3 of 3 lines tested (H69, H345, H510A)

Compound: CC(C)C[C@H](NC(=O)[C@H](CC(C)C)NC(=O)[C@@H](Cc1c[nH]c2ccccc12)NC(=O)[C@H](Cc1ccccc1)NC(=O)[C@@H](Cc1c[nH]c2ccccc12)NC(=O)[C@H](CCC(N)=O)NC(=O)[C@@H](Cc1ccccc1)NC(=O)[C@@H]1CCCN1C(=O)[C@H](CCCCN)NC(=O)[C@@H]1CCCN1C(=O)[C@H](N)CCCNC(=N)N)C(N)=O [antagonist D, D-Arg-Pro-Lys-Pro-D-Phe-Gln-D-Trp-Phe-D-Trp-Leu-Leu-NH2] (H-[dR]PKP[dF]Q[dW]F[dW]LL-NH2)
- concentration that abolishes cell growth [1]: 40 to 50 µM
- block of intracellular [Ca2+] responses to bradykinin, GRP and vasopressin (SCLC cell lines): blocked
